Measured values reported in patent US12297453B2, “Generation of norepinephrine neurons from human stem cells” (Wisconsin Alumni Research Foundation, priority 2020, dated 2025).

Test system: hindbrain R1 neuroepithelial cells
Assay: NE progenitor fate specification of hindbrain R1 neuroepithelial cells (qPCR of MASH1, PHOX2B, PHOX2A and regional markers)
Format: cell-based, human
Settings: 10 ng/ml, day 6 to day 12
Source text: On day 5, change the medium without SB431542. […] Cells were feed daily.
Development of NE neurons in LC depends on expression of Mash1, Phox2b and Phox2a in a stage dependent manner. See Pattyn et al., 2000, Mol Cell Neurosci, 15:235-243; Morin et al., 1997, Neuron, 18:411-423; Hirsch et al., 1998, Development, 125:599-608. Mash1 is expressed in the proliferative progenitor cells, while Phox2b and Phox2a are expressed when cells became postmitotic precursors and neurons. Pattyn et al., 2000. […] In zebrafish, FGF8 and BMPs are essential for NE differentiation 9 (FIG. 2A). Thus, the effects of FGF8 and BMPs were tested in the second week of differentiation (FIG. 2B).
MASH1 reached a maximum expression level when 25 ng/ml of Activin A was used while PHOX2B and PHOX2A reached their maximum level when Activin A concentration reached 250 ng/ml (FIG. 2E).
In further experiments it was determined whether the unique role of Activin A on human NE neuron specification was regional identity dependent. Neuroepithelial cells ranging from anterior forebrain to posterior hindbrain were obtained using different doses of CHIR99021, and then these neuroepithelial cells were treated with 25 ng/ml Activin A for 6 days. […]

B1: BMP2: bone morphogenetic protein (protein, UniProt P12643 283-396, looked up)
Bone morphogenetic protein 2: QAKHKQRKRLKSSCKRHPLYVDFSDVGWNDWIVAPPGYHAFYCHGECPFPLADHLNSTNHAIVQTLVNSVNSKIPKACCVPTELSAISMLYLDENEKVVLKNYQDMVVEGCGCR
effect on expression of MASH1, PHOX2B, and PHOX2A: no obvious effects
